Reference: US20090143469A1, “SALTS OF NATEGLINIDE” (priority 2002, published 2009)

Assay: Solubility in water of nateglinide salts
Assay type: physicochemical

Lysine
Solubility Water: 7100 µg/mL | water solubility compared with other forms (in words): comparable to that of the N-methyl-D-glucamine salt of nateglinide
